The record followed here is US20180222985A1, “ANTIBODIES AGAINST HUMAN CSF-1R FOR USE IN INDUCING LYMPHOCYTOSIS IN LYMPHOMAS OR LEUKEMIAS” (Hoffmann-La Roche Inc., priority 2015, published 2018).

Where two headings read alike, the source gives them in different places.

Assay in all cases: cell-based or functional assay
Assay [1] deals with T1, human wildtype CSF-1R (wt CSF-1R) (human, UniProt P07333 20-972).
Assay [2] concerns the target T1, human wildtype CSF-1R (wt CSF-1R). This is another data set of the same source.
The target is the same in assay [3]. This is another data set of the same source.
For assay [4] the target is unchanged. The source holds these as a separate data set.

Regarding “Anti CSF-1R SC 2-4A5 (Santa Cruz Biotechnology, US) (antibody)”, in assay [1], the IC50 CSF-1R Phosphorylation turned out to be 1.01 mg/L.

B1: hMab 2F11-e7 (antibody, IgG1, V domains shown)
VH: QVQLVQSGAEVKKPGASVKVSCKASGYTFTSYDISWVRQAPGQGLEWMGVIWTDGGTNYAQKLQGRVTMTTDTSTSTAYMELRSLRSDDTAVYYCARDQRLYFDVWGQGTTVTVSS
VL: DIQMTQSPSSLSASVGDRVTITCRASEDVNTYVSWYQQKPGKAPKLLIYAASNRYTGVPSRFSGSGSGTDFTLTISSLQPEDFATYYCQQSFSYPTFGQGTKLEIK
In the case of B1, in assay [2], the “IC50 of inhibition of survival of human monocytes cultured with 150 ng/ml huCSF-1 (CellTiterGlo)” value (shortened to “IC50 of inhibition of survival … (CellTiterGlo)”) was 0.04 mg/L.

B2: hMab 2F11-f12 (antibody, V domains shown)
VH: QVQLVQSGAEVKKPGSSVKVSCKASGFSLTTYDISWVRQAPGQGLEWMGVIWTDGGTNYNSPFMSRVTITKDESTSTAYMELSSLRSEDTAVYYCVRDQRLYFDVWGQGTTVTVSS
VL: DIQMTQSPSSLSASVGDRVTITCRASEDVNTYVSWYQQKPGKAPKLLIYGASSLQSGVPSRFSGSGSGTDFTLTISSLQPEDFATYYCGQSFSYPTFGQGTKLEIK
For the molecule B2, the “IC50 of inhibition of survival … (CellTiterGlo)” value in assay [2] came to 0.09 mg/L.

B3: Mab 2F11 (antibody, V domains shown)
VH: QVQLKESGPGLVAPSQSLSITCTVSGFSLTTYDISWIRQSPGKGLEWLGVIWTDGGTNYNSPFMSRLSIRKDNSKSQVFLKMNRLQTDDTAIYYCVRDQRLYFDVWGAGTTVTVSS
VL: NIVMTQSPKSMSMSVGERVTLNCKASEDVNTYVSWYQQQPEQSPKLLIYGASNRYTGVPDRFTGGGSTTDFTLTISSVQAEDLADYFCGQSFSYPTFGTGTKLEIK
For B3, the “IC50 of inhibition of survival … (CellTiterGlo)” value in assay [3] is 0.08 mg/L. Further, in assay [4], the “IC50 CSF-1R Phosphorylation” value amounted to 0.219 mg/L.

B4: Mab 2E10 (antibody, V domains shown)
VH: QVQLKESGPGLVAPSKSLSITCTVSGSSLDSFDISWIRQSPGKGLEWLGVIWTGGGTNYNSGFMSRLRITKDNSKSQVLLKMNSLQSDDTAIYYCVRDPRLYFDVWGAGTTVTVSS
VL: NIVMTQSPKSMSMSVGERVTLSCKASEDVVTYVSWYQQKPDQSPKLLIYGASNRYTGVPDRFTGSGSATDFTLTISSVQAEDLADYYCGQTFSYPTFGTGTKLEIK
As for B4, the “IC50 CSF-1R Phosphorylation” value in assay [4] was 0.752 mg/L.
